Patent US8399712B2 (priority 2010, dated 2013)

Key:
[1] = Relative humidity stability, saturated salt solutions at ambient temperature, XRPD; format: physicochemical
various enzymes = conditions: literature (Pezet 1998, Breuil 1999); cited from earlier work

SMILES	Results (form by XRPD) ([1]; 75% RH, 1 week)	Results (form by XRPD) ([1]; 75% RH, 4 weeks)	Results (form by XRPD) ([1]; 75% RH, 1 day)	Results (form by XRPD) ([1]; 75% RH, 3 days)	Conversion to hydrate ([1]; 75% RH, up to four weeks)	Conversion to hydrate ([1]; 94% RH)	Results (form by XRPD) ([1]; 94% RH, 1 day)	Results (form by XRPD) ([1]; 94% RH, 3 days)	Conversion to hydrate ([1]; 98% RH)	Results (form by XRPD) ([1]; 98% RH, 4 weeks)	Results (form by XRPD) ([1]; 94% RH, 4 weeks)	Oxidation by various enzymes (various enzymes)
NC(=O)N1c2ccccc2C=Cc2ccccc21 [carbamazepine]	carbamazepine (Form III)	carbamazepine (Form III)	carbamazepine (Form III)	carbamazepine (Form III)	no conversion	partially converts to the dihydrate between three days and one week	carbamazepine (Form III)	carbamazepine (Form III)	Full conversion to the dihydrate is observed in less than one day	carbamazepine dihydrate		
COc1cc(/C=C/c2ccc(O)cc2)cc(OC)c1 [pterostilbene, trans-3,5-dimethoxy-4′-hydroxystilbene]		pterostilbene (Form I)								pterostilbene (Form I)	pterostilbene (Form I)	easily oxidized
